From article PMC10856354 (International Journal of Molecular Sciences, 2024) come the findings set out here.

Amino acid sequences for entries named in this document (tags omitted). A change or cut given only in a name is not applied to a line headed by its entry.
UniProt P30874: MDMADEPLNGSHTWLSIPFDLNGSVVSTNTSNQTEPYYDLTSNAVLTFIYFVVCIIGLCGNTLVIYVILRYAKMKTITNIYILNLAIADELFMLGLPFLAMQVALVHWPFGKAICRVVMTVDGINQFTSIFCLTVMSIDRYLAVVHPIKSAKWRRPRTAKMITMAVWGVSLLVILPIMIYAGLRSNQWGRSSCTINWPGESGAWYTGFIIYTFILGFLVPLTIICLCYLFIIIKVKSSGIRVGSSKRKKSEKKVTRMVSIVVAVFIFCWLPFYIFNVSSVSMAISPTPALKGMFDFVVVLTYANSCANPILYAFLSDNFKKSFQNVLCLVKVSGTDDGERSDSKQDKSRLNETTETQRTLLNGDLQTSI

The test has as its target T1, hSST2R (Homo sapiens, UniProt P30874).
T1 construct: expressed in transfected cells
The test is described as follows: Immunofluorescence microscopy-based internalization assay in HEK293-hSST2R cells. In kind it is cell-based. Particulars: 30 min at 37 °C. As for the experimental part: Figure 3 Agonist stimulated hSST2R-internalization in HEK293-hSST2R cells determined by immunofluorescence microscopy.
An immunofluorescence microscopy-based internalization assay for hSST2R was performed in HEK293-hSST2R cells, grown on poly-DLys (20 μg/mL) (Sigma-Aldrich, St. Louis, MO, USA) coated 35-mm four-well plates (Cellstar, Greiner Bio-One GmbH, Frickenhausen, Germany). […] HEK293-hSST2R cells treated with vehicle alone were used as a negative control. The cells were then rinsed twice with PS (100 mM phosphate buffer containing 0.15 M sucrose), fixed and permeabilized for 7 min with cold methanol (−20 °C), rinsed twice with PS, and then blocked for 60 min at room temperature with PS containing 0.1% BSA. Next, cells were incubated for 60 min at room temperature with the hSST2R-specific primary antibody R2-88 (provided by Dr. A. Schönbrunn, Houston, TX, USA) diluted 1:1000 in PS and washed 3 × 5 min with PS containing 0.1% BSA. The cells were incubated for 60 min at room temperature in the dark with the secondary antibody Alexa Fluor 488 goat anti-rabbit IgG (H+ L) (Molecular Probes, Inc., Eugene, OR, USA) diluted in PS (1:600), washed 3 × 5 min with PS containing 0.1% BSA, embedded with PS/glycerol 1:1, and covered with a glass cover slip. […]

Take “[Tyr^3]octreotide [TOC, reference compound]”: the “ligand-induced hSST2R internalization (agonism)” value reads like this: (10 nM) “clearly able to trigger the internalization of hSST2R”; (1 µM) “clearly able to trigger the internalization of hSST2R”.
